Assay results published in US20050170392A1, “OAT3 transporters expressed in blood brain barrier cells” (priority 2004, published 2005).

Legend:
OAT3 [1] = biological target: T1, OAT3 (Homo sapiens, UniProt Q8TCC7); settings: cited from earlier work
T1 sequence (Q8TCC7 1-542): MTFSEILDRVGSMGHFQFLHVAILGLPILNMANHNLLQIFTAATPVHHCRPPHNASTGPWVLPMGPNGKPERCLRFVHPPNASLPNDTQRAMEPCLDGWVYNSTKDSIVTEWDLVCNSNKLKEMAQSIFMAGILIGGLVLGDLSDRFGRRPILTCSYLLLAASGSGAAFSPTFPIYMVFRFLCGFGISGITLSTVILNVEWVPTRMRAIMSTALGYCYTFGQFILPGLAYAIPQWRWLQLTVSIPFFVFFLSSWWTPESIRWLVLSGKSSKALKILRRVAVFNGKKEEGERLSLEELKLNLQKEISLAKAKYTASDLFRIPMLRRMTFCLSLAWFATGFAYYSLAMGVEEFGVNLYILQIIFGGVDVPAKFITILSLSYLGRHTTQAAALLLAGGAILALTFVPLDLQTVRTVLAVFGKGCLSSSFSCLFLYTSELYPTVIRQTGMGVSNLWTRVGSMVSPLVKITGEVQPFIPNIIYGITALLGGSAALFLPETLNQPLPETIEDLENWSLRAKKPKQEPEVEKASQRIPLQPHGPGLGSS

OAT3 [2] = biological target: T1, OAT3; assay: Uptake of 3H-PAH into Xenopus oocytes injected with OAT3 cRNA; assay type: cell-based; set-up: expressed in transfected cells; host or cells: Xenopus oocytes injected with in vitro transcribed OAT3 cRNA; settings: versus noninjected control oocytes; FIG. 2
Method: To assess transport function of a specific transporter protein, it can be desirable to clone the cDNA and express the protein in cells that have low endogenous transport activity. Human OAT3 was cloned by PCR, fully sequenced, and subcloned into plasmids that can be used for expression in mammalian cells or Xenopus oocytes. For expression in Xenopus oocytes, in vitro OAT3 cRNA was prepared and injected into defoliculated oocytes.
To measure directly the uptake of possible substrates, an oocyte uptake assay can be performed in which uptake of compounds is measured by mass spectroscopy. For example, uptake of PAH can be measured. Oocytes injected with OAT3 cRNA can be incubated at 16-18° C. until maximal transporter expression is reached. Oocytes from the same batch, not injected with cRNA, can be used as a control. A 0.5 mM solution of PAH can be prepared in oocyte ringers (ND96) buffer (90 mM NaCl, 10 mM HemiNa HEPES, 2 mM KCl, 1 mM MgCl2, 1.8 mM CaCl2, pH adjusted to 7.4) containing 0.5% bovine serum albumin. The PAH is, for example, administered to pools of 8 oocytes for a 20 minute duration. Following the incubation, the pools of oocytes are washed with 0.5% BSA ND96 buffer and separated into subpools containing, for example, 4 oocytes each. […] Approximately 110 μl of lysate is removed from the tubes and placed in a 96-well plate and analyzed for PAH concentration by LC-MS-MS.

Compound: Nc1ccc(C(=O)NCC(=O)O)cc1 [Para-amino-hippurate]
- Reported Affinity for OAT3 (OAT3 [1]): 0.2 mM
- uptake into oocytes expressing OAT3 (OAT3 [2]): higher levels of ^3H-PAH uptake than noninjected controls
